Usually inhibition stands for the relative decrease from the control value, in per cent.

Amino acid sequences for entries named in this document (tags omitted). A change or cut given only in a name is not applied to a line headed by its entry.
UniProt Q17339: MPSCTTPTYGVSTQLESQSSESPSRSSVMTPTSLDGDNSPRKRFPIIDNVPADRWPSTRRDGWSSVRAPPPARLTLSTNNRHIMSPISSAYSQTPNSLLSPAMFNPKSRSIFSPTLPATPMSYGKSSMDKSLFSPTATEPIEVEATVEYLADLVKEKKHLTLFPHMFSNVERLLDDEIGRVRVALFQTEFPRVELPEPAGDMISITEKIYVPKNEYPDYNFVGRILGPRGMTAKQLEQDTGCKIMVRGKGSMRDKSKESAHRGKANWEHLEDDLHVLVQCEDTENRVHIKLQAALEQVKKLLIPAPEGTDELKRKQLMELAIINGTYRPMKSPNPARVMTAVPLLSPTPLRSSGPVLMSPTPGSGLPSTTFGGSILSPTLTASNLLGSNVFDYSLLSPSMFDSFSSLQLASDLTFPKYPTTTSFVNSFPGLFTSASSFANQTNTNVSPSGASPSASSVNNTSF

The entries are a selection whose mix differs from that of the whole data set. Calls of active or inactive are those of the source.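 How the source made its calls: active means percent inhibition above a per-plate cutoff, the plate mean of test compounds plus 3 SD (cut at about 30% in these data); inactive means the rest.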

The target in the assay is Female germline-specific tumor suppressor gld-1 (Caenorhabditis elegans) (UniProt Q17339). Kind of assay: GLD-1/TGE RNA complex disruptors, primary screen, biochemical, fluorescence polarization (AID 2280).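 Further: 0% = DMSO wells with GLD-1 and probe and 100% = wells lacking GLD-1.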 The following applies: purified GLD-1 + fluorescein TGE RNA, at 5.96 µM, stronger effect = higher value. Background: Fluorescence polarisation rises when a labelled molecule tumbles more slowly, as on binding a larger partner.
Regarding `COc1cc(C2NCCC3(OCCO3)C2(C)C)cc(OC)c1OC` (stereo unspecified), the inhibition is inactive: 1.59%.

As to `CCOP(=O)(Nc1cccc2ccccc12)OCC`, the inhibition was inactive: -2.9%.

With `O=[As](O)(O)c1cccnc1`, the inhibition is inactive: -8.25%.

Regarding `COc1cc(C(=O)NCC2(N3CCOCC3)CCCCC2)cc(Cl)c1OC(C)C`, the inhibition was inactive: 5.62%.

Take `CS(=O)(=O)c1ccc(Cl)c(NC(=O)COC(=O)C(O)(c2ccccc2)c2ccccc2)c1`: the inhibition was inactive: 1.61%.

For `O=C(OC1CN2CCC1CC2)c1ccc(Cl)cc1` (stereo unspecified), the inhibition is inactive: 5.22%.

`Cc1cccc(OCC(=O)OC2CN3CCC2CC3)c1` (stereo unspecified): the inhibition is inactive: -4.33%.

As for `O=[As](O)(c1cccc(O)c1)c1cccc(O)c1`, the inhibition was inactive: -0.79%.

Regarding `CC(=O)c1ccc(N2CC2c2ccncc2)cc1` (stereo unspecified), the inhibition was inactive: -2.96%.

In the case of `Cc1ccccc1CN(C)C(=O)COC(=O)C(O)(c1ccccc1)c1ccccc1`, the inhibition is inactive: -3.2%.

Consider `C[C@H]1OP(=O)(Oc2ccccc2)C[C@@H]2O[C@@H]21` (stereo partly specified), for which the inhibition is inactive: 1.56%.

For `C[C@@H]1C=CCP(=O)(Oc2ccccc2)O1` (stereo partly specified), the inhibition is inactive: -3.86%.

Take `CC(=O)Nc1ccc([As](=O)(O)O)c(O)c1`: the inhibition is inactive: 1.66%.

On to `CC(=O)Nc1ccc(Oc2c([N+](=O)[O-])cc([N+](=O)[O-])cc2[N+](=O)[O-])cc1`, for which the inhibition is inactive: 6.84%.

Regarding `O=P1(Nc2nc3ccc(Cl)cc3s2)COc2ccccc2O1` (stereo unspecified), the inhibition is inactive: 0.39%.

`CCOc1ccc(C2=NCC(CBr)S2)cc1` (stereo unspecified): the inhibition was inactive: 6.09%.

Take `CC(C)(C)C(=O)NC(Sc1ccccc1)C(Cl)(Cl)Cl` (stereo unspecified): the inhibition was inactive: 0.94%.

`COC(=O)c1cc2c(s1)N=C(c1ccccc1)N(C)P2(=O)N1CCOCC1` (stereo unspecified): the inhibition was inactive: 5.87%.

Take `Cc1ccc(OP(=O)(Nc2ccccn2)Oc2ccc(C)cc2)cc1`: the inhibition is inactive: 2%.

Consider `CC(=O)NC(SC(=S)N(CC(C)C)CC(C)C)C(Cl)(Cl)Cl` (stereo unspecified), for which the inhibition is inactive: 4.79%.

For the compound `O=C(OC1CN2CCC1CC2)c1ccccc1` (stereo unspecified), the inhibition was inactive: 2.71%.

`CCC(=O)N1C2C3N(C(=O)CC)C1C1N(C(=O)CC)C(C(N1C(=O)CC)N3C(=O)CC)N2C(=O)CC`: the inhibition is inactive: 1.04%.

`CC(NC(=O)COC(=O)C(O)(c1ccccc1)c1ccccc1)c1ccccc1` (stereo unspecified): the inhibition was inactive: 8.31%.

As to `Cc1ccccc1OP(=O)(Nc1ccccn1)Oc1ccccc1C`, the inhibition was inactive: 4.75%.

Consider `CN(C)C(=O)Oc1noc2ccccc12`, for which the inhibition was inactive: 8.91%.

Regarding `O=C(NC1CCS(=O)(=O)C1)NP(=S)(Oc1ccccc1)Oc1ccccc1` (stereo unspecified), the inhibition is inactive: 4.69%.

For the compound `CCNC(=S)/N=C(\N)N[N+](=O)[O-]`, the inhibition is inactive: 6.44%.

Regarding `c1ccc(-c2nn[nH]n2)c(-c2nn[nH]n2)c1`, the inhibition is inactive: 2.11%.

Turning to `CCOC(=O)NC(Sc1ccccc1)C(Cl)(Cl)Cl` (stereo unspecified), the inhibition is inactive: 2.28%.

Consider `Cc1ccc(NP(=O)(Oc2cccc(C)c2)Oc2cccc(C)c2)nc1`, for which the inhibition was inactive: -3.96%.

For `O=[N+]([O-])c1ncn(CCn2cnc([N+](=O)[O-])n2)n1`, the inhibition was inactive: 6.81%.

As for `CC(=O)NC(SC(=S)N(C)C)C(Cl)(Cl)Cl` (stereo unspecified), the inhibition is inactive: 2.16%.

`O=[N+]([O-])c1ccc(O)c(/C=N/Nc2ccc([N+](=O)[O-])cc2[N+](=O)[O-])c1`: the inhibition was inactive: 5.56%.

`O=[As](O)(c1ccccc1)c1ccc(O)cc1`: the inhibition is inactive: 2.12%.

Take `C(Cc1nn[nH]n1)Cc1nn[nH]n1`: the inhibition is inactive: 6.56%.

In the case of `Nc1ccc([As](=O)(O)c2ccc([N+](=O)[O-])cc2)cc1`, the inhibition was inactive: 2.69%.

In the case of `O=C(OC1CN2CCC1CC2)c1cccc(Cl)c1` (stereo unspecified), the inhibition was inactive: 3.84%.

On to `CN(C)C1(CNC(=O)c2ccc(Cl)c(S(N)(=O)=O)c2)CCCCC1`, for which the inhibition is inactive: -2.1%.

For the compound `O=P(Nc1ccccn1)(c1ccc(Br)cc1)c1ccc(Br)cc1`, the inhibition was inactive: 7.24%.

Take `O=P(Nc1nc2ccccc2s1)(c1ccccc1)c1ccccc1`: the inhibition is inactive: 3.12%.

In the case of `C[C@H]1OP(=O)(Oc2ccccc2)[C@H](O)[C@H](O)[C@H]1N=[N+]=[N-]` (stereo partly specified), the inhibition was inactive: 0.05%.

`O=P(Nc1nccs1)(c1ccccc1)c1ccccc1`: the inhibition is inactive: -1.14%.

With `CC(C)C(=O)NC(Sc1ccccc1)C(Cl)(Cl)Cl` (stereo unspecified), the inhibition was inactive: 5.42%.

Take `c1nnnn1CCn1cnnn1`: the inhibition was inactive: 2.27%.

Turning to `Nc1ccc([As](=O)(O)c2ccc(N)cc2)cc1`, the inhibition is inactive: 8.07%.

`C[N+]1=C2C=CC=CC=C2SC12C([N+](=O)[O-])=CC([N+](=O)[O-])=C[C-]2[N+](=O)[O-]` (stereo unspecified): the inhibition was inactive: 5.78%.

As to `CCN(/C(=N/P(=O)(N1CCOCC1)N1CCOCC1)N1CCOCC1)c1ccc(OC)cc1`, the inhibition is inactive: 7.59%.

On to `CC(C)=N/N=C(\N)N[N+](=O)[O-]`, for which the inhibition is inactive: -2.81%.

`CN(C)C(=O)OCCc1n(C)cc[n+]1C`: the inhibition is inactive: -2.33%.

Consider `CC1CCN(C(=O)Oc2c(Cl)cc(Cl)c3cccnc23)CC1`, for which the inhibition was inactive: 6.66%.

With `COc1ccc(C2=NCC(CBr)S2)cc1` (stereo unspecified), the inhibition is inactive: 1.5%.

As to `CC(=O)N1C2C3N(C(C)=O)C1C1N(C(C)=O)C(C(N1C(C)=O)N3C(C)=O)N2C(C)=O`, the inhibition is inactive: 1.3%.

Turning to `O=[N+]([O-])c1cccc2n[nH]nc12`, the inhibition was inactive: 2.51%.

As for `Cc1ccc(NP(=O)(Oc2ccccc2)Oc2ccccc2)nc1`, the inhibition was inactive: 0.44%.

In the case of `O=[N+]([O-])c1cc([N+](=O)[O-])c(CCNc2ccccc2)c([N+](=O)[O-])c1`, the inhibition was inactive: 2.5%.

As for `CCc1nc2c(n1)c1c(non1O)c1c2no[n+]1[O-]`, the inhibition was inactive: 8.2%.

Take `CC(C)(C)C(=O)NC(Sc1ccncn1)C(Cl)(Cl)Cl` (stereo unspecified): the inhibition is inactive: -0.95%.

Regarding `O=[N+]([O-])c1ncn(CCn2ncnc2[N+](=O)[O-])n1`, the inhibition is inactive: -4.33%.

Consider `O=[N+]([O-])c1cccc(NC2=NCC(CBr)S2)c1` (stereo unspecified), for which the inhibition was inactive: 7.36%.

Take `O=C(Nc1cc([As](=O)(O)O)ccc1O)c1ccccc1`: the inhibition was inactive: -12%.

Regarding `O=[N+]([O-])c1cc([N+](=O)[O-])c(CCN2CCOCC2)c([N+](=O)[O-])c1`, the inhibition is inactive: 5.8%.

Turning to `CCN(N=Nc1nonc1N)c1nonc1N`, the inhibition is inactive: 1.33%.

As to `CC(=O)Nc1ccc([As](=O)(O)O)cc1`, the inhibition was inactive: -3.07%.

In the case of `O=C(O)c1ccccc1[As](=O)(O)O`, the inhibition was inactive: 3.56%.

As for `O=P(Nc1nc2ccc(Cl)cc2s1)(c1ccccc1)c1ccccc1`, the inhibition is inactive: 1.08%.

Consider `Cc1cc(SC(NC(=O)c2ccc(F)cc2)C(Cl)(Cl)Cl)ncn1` (stereo unspecified), for which the inhibition is inactive: -2.72%.

Take `CCOP(=O)(Nc1ccccc1)OCC`: the inhibition was inactive: 7.76%.

For `CN(C(=O)Cc1ccc(Cl)c(Cl)c1)[C@H]1CCCC[C@@H]1N1CCCC1`, the inhibition is inactive: 1.98%.

In the case of `Cc1ccc(NP(=O)(Oc2ccccc2F)Oc2ccccc2F)nc1`, the inhibition is inactive: -3.48%.

With `Nc1cc(N)c2nonc2c1[N+](=O)[O-]`, the inhibition was inactive: -5.18%.

As for `CC(C)CC(=O)NC(Sc1ccc(Cl)cc1)C(Cl)(Cl)Cl` (stereo unspecified), the inhibition is inactive: -2.18%.

As for `Oc1ccccc1CNc1ccccn1`, the inhibition was inactive: -3.63%.

For the compound `O=C(NC(Sc1ccncn1)C(Cl)(Cl)Cl)c1ccccc1` (stereo unspecified), the inhibition was inactive: 1.71%.

With `Cc1c2non([O-])c-2c(C)[n+](=O)[n+]1[O-]`, the inhibition was inactive: -2.37%.

As for `NC(=O)c1cc([N+](=O)[O-])cc([N+](=O)[O-])c1N`, the inhibition is inactive: -7.57%.

Regarding `CN(C(=O)Cc1ccc(Cl)c(Cl)c1)[C@H]1CCCC[C@H]1N1CCCC1`, the inhibition is inactive: -0.08%.

Turning to `Cc1ccc(N/C(=N/P(=O)(N2CCOCC2)N2CCOCC2)N2CCOCC2)cc1`, the inhibition was inactive: 4.79%.

Regarding `COc1ccccc1OP(=O)(Nc1ccc(C)cn1)Oc1ccccc1OC`, the inhibition is inactive: 1.99%.

`Cc1ccc(OP(=O)(Nc2nccs2)Oc2ccc(C)cc2)cc1`: the inhibition was inactive: -0.46%.

For `CN1CCCC(OC(=O)C(c2ccccc2)c2ccccc2)C1` (stereo unspecified), the inhibition is inactive: -6.76%.

As to `Clc1ccc(Cl)c(NC2=NCC(CBr)S2)c1` (stereo unspecified), the inhibition is inactive: 4.54%.

(Values after PubChem BioAssay AID2280 (The Scripps Research Institute Molecular Screening Center, 2010).)
